Literature values in patent US4499094A, “Derivatives of arene and hetero-arene carboxamides and their use as medicaments” (Pharmuka Laboratoires, priority 1982, dated 1985).

Test system: binding sites of (^3 H) diazepam in the brain
Conditions: cited from earlier work

For O=C1CN=C(c2ccccc2Cl)c2cc([N+](=O)[O-])ccc2N1 [clonazepam], the “affinity for the binding sites of (^3 H) diazepam in the brain (central level)” value (brain, in words) is given as “very strong affinity” and the “classification by decreasing affinity, "cerebral" type” value (rank order) is given as “clonazepan>diazepam>Ro-5-4864”.
